Source: article PMC8633983, “GTP binding to translation factor eIF2B stimulates its guanine nucleotide exchange activity” (iScience, 2021)

The chains behind the UniProt entries cited, without tags or fusion partners.
UniProt P20459, whole entry, chain 1 of 3: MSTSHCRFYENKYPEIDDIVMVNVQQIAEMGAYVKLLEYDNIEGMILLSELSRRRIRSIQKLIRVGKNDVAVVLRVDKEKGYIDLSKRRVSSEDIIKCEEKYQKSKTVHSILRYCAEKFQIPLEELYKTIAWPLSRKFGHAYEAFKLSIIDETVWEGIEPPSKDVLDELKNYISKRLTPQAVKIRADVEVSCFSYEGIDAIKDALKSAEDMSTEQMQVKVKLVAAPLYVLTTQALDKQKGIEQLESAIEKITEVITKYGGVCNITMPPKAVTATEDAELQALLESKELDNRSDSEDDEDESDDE

Target: eIF2 (S. cerevisiae) (UniProt P20459)

K1/2 (eIF2B concentration) of the release of BODIPY-GDP from eIF2 (GEF assay), eIF2B preincubated with unlabeled GTP: 4.2 nM | K1/2 (eIF2B concentration) of the release of BODIPY-GDP from eIF2 (GEF assay), eIF2B without preincubated nucleotide: 5.5 nM
Substance: eIF2B (wild type, Flag-tagged eIF2Bγ), P14741 1-305; P32502 1-381; P09032 1-578; P12754 1-651; P32501 1-712
